Like-named read-outs stand apart in the source and are kept apart here.
How the values were obtained:
[1] = tested on: gramicidin channels; test: Protection of gramicidin channels in bilayer membrane, damage by photoactivated phthalocyanine; type: biochemical; settings: photoactivation of phthalocyanine; FIG. 3A
From the text: A method was developed which allows the study of the antioxidant activity of compounds in a simple system consisting of a bilayer membrane, a conducting protein gramicidin and a photosensitizer (Mito Tracker Red, Invitrogen, Carlsbad, Calif.), thrice sulfonated aluminum phthalocyanine or zinc phthalocyanine). The method uses the ability of reactive oxygen species generated by photoactivation of the photosensitizer molecules to damage gramicidin channels, resulting in a sharp decrease in the conducting ability of the bilayer membrane.

[2] = Penetrating ability on artificial black (bilayer phospholipid) membranes, membrane potential; type: physicochemical; settings: comparison between compounds
From the text: To test the penetrating ability of mitochondria-addressed compounds of structure (I), a method is used based on the ability of ions to penetrate through the phospholipid membrane bilayer moving along the concentration gradient. […] If a charged substance can penetrate through the bilayer membrane, its rapid diffusion out of the chamber having a high concentration of the substance, to the chamber having a low concentration of the substance, occurs, and thus a membrane potential difference is created. For ions which are carrying one charge and able to easily penetrate through the membrane, a 10-fold concentration gradient allows for creation of a potential of 60 mV (according to the Nernst equation). This method was used in various studies of the ability of ions to pass through the lipid bilayer of the membrane.

[3] = 20 mM MOPS-KOH, pH=7.6; FIG. 1A
[4] = FIG. 1B
[5] = tested on: mitochondrial respiratory chain
[6] = tested on: Ceriodaphnia affinis
[7] = tested on: gramicidin channels; test: Protection of gramicidin channels in bilayer membrane, damage by FeSO4, ascorbate and tert-butyl hydroperoxide; type: biochemical; settings: FeSO4, ascorbate, tert-butyl hydroperoxide; FIG. 3B
From the text: A method was developed which allows the study of the antioxidant activity of compounds in a simple system consisting of a bilayer membrane, […]). […]

[8] = tested on: HeLa cells; test: H2O2-induced oxidative stress in cells, DCF-DA cytofluorimetry; type: cell-based, human; settings: incubation for 1 to 5 hours
Experimental: To measure the level of oxidative stress stimulated by H2O2, cells were stained with fluorescent dye DCF-DA (2′,7′-dichloro-dihydrofluorescein diacetate), and the level of fluorescence of the dye was measured with a cytofluorimeter.
Estimates were made on the basis of seven experiments. Data were estimated with respect to a group of the control cells lying on the diagram in the area of low DCF-DA fluorescence (50% of the population), this group of cells was taken as 100% and indicators for every action were estimated relative to this group.

[9] = tested on: HeLa and normal human diploid fibroblasts; test: Protection of cells against H2O2-induced death (apoptosis), Hoechst/PI counting; type: cell-based

SMILES: CC1=C(C)C(=O)C(CCCCCCCCCC[P+](c2ccccc2)(c2ccccc2)c2ccccc2)=CC1=O [SkQ1, [10-(4,5-dimethyl-3,6-dioxo-cyclohexa-1,4-dien-1-yl)decyl]-triphenylphosphonium bromide]
- prevention of fall in membrane conductance (gramicidin channels) [1]: most efficient
- penetrating ability [2]: less penetrating abilities compared to SkQ3 or SkQR1
- resistance of the reduced (quinol) form to oxidation by atmospheric oxygen [3]: more resistant to oxidation by atmospheric oxygen than MitoQ
- oxidation by superoxide formed in the reaction of xanthine oxidase with xanthine [4]: much more effective than that of MitoQ
- ability to be reduced by the mitochondrial respiratory chain ([5]; complex I (glutamate and malate) and complex II (succinate), FIG. 5A): can be reduced by the mitochondrial respiratory chain
- oxidation with complex III ([5]; malonate, rotenone, FIG. 5B): much slower than its reduction with complex I and complex II
- Average life span M ± m ([6]; 0.55 nM): 33.55 ± 6.21
- Average life span, % of control ([6]; 0.55 nM): 166.09%
- LT25% fixed time of death ([6]; 0.55 nM): 22 days
- LT50% fixed time of death ([6]; 0.55 nM): 36 days
- LT75% fixed time of death ([6]; 0.55 nM): 45 days
- survival of the crustaceans versus control ([6]; 0.55 nM): higher than control
- time of death in 50% relative to control ([6]; 0.55 nM): 2 times
- Average life span M ± m ([6]; 5.5 nM): 31.25 ± 8.11
- Average life span, % of control ([6]; 5.5 nM): 154.7%
- LT25% fixed time of death ([6]; 5.5 nM): 18 days
- LT50% fixed time of death ([6]; 5.5 nM): 26 days
- LT75% fixed time of death ([6]; 5.5 nM): 46 days
- survival of the crustaceans versus control ([6]; 5.5 nM): higher than control
- time of death in 50% relative to control ([6]; 5.5 nM): 1.4 times
- Average life span M ± m ([6]; 55 nM): 12.85 ± 2.79
- Average life span, % of control ([6]; 55 nM): 63.61%
- LT25% fixed time of death ([6]; 55 nM): 9 days
- LT50% fixed time of death ([6]; 55 nM): 12 days
- LT75% fixed time of death ([6]; 55 nM): 17 days
- survival of the crustaceans versus control ([6]; 55 nM): lower than control
- antioxidant efficiency, protection of gramicidin channels [7]: most efficient
- effect on H2O2-induced oxidative stress in cells [8]: did not prevent
- protection of cells against death, comparison ([9]; H2O2 300 μM, 7 days, FIG. 7): much more effectively than MitoQ
- concentration at which protective effect against H2O2-induced cell death is exerted ([9]; H2O2 300 μM, incubation for 7 days, FIG. 7): 0.2 nM
- resistance of cells to H2O2 ([9]; incubation with the cells for 5 to 7 days): increase resistance of cells to H2O2
